## Curated experimental data: water solubility values

Values as listed in the OPERA 2.9 repository of K. Mansouri.

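OPERA's authors assembled the values from existing databases and did not measure them anew. One number stands for a compound and property, with no spread given. How each value was measured is not recorded, so precision varies. The measured form (salt, isomer or mixture) is not always the one drawn. Some upstream entries may be estimates or bounds without being marked so.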

Solubility in water is on a log10 molar scale (set defined at 25 °C).

| compound | water solubility (log10 mol/L) |
|---|---|
| CCCC(C)COC(=O)C(C)CCC (configuration not stated) | -4.639 |
| COC(=O)[C@H]1O[C@H](OC)[C@H](O)[C@@H](O)[C@H]1O | -0.264 |
| O=C(O)c1ccc2cc(O)ccc2c1 | -3.279 |
| NS(=O)(=O)c1ccc(=O)[nH]c1 | -1.843 |
| CCOC(=O)c1ccc(C)cc1 | -2.839 |
| CC(=O)[C@@H]1C[C@H](C(=O)O)C1(C)C | -1.085 |
| CCOC(=O)Nc1ccc2c(c1)N(C(=O)CCN1CCOCC1)c1ccccc1S2 | -4.101 |
| O=C(O)c1ccc([N+](=O)[O-])cc1 | -2.86 |
| CC(C)(C)c1ccc(N)cc1 | -2.088 |
| NC(=O)NC(N)=O | -0.831 |
| O=C(O)c1cc2ccccc2cc1O | -2.439 |
| O=C(CCCCCCCCCCC(=O)OCCOc1ccc(-c2nc(-c3ccccc3)nc(-c3ccccc3)n2)c(O)c1)OCCOc1ccc(-c2nc(-c3ccccc3)nc(-c3ccccc3)n2)c(O)c1 | -8.383 |
| CS(=O)(=O)c1c(F)c(F)c(F)c(F)c1F | -1.939 |
| O=C(O)C(c1ccccc1)(c1ccccc1)c1ccccc1 | -3.759 |
| CC(C)(C)CC(C)(C)C1CCC(=NO)C(=NO)C1 (configuration not stated) | -6.405 |
| CCCCCCCCCCC(CCCCCCCC)COC(=O)CCCCCCCC(=O)OCC(CCCCCCCC)CCCCCCCCCC (configuration not stated) | -8.273 |
| CCC(=O)NC(C)=O | -0.806 |
| Nc1cc(S(=O)(=O)O)cc2ccccc12 | -2.34 |
| COC(=O)/C=C(/C)C(=O)OC | -1.514 |
| CCOC(=O)c1ccc([N+](=O)[O-])cc1 | -3 |
| CCCCCCCCC=CCCCCCCCC1=NCCN1CCO | -3.846 |
| O=C(O)Cc1ccccc1Oc1ccc(Cl)cc1Cl | -3.851 |
| CCCCCCC(N)C(=O)O (configuration not stated) | -0.923 |
| OCc1cnc(O)nc1O | -0.509 |
| CC(=O)Nc1ccc(F)cc1 | -1.675 |
| C=C(C)C(=O)OCCCCCCCCCC | -6.11 |
| COC(=O)C1=CO[C@@H](O[C@@H]2O[C@H](CO)[C@@H](O)[C@H](O)[C@H]2O)[C@H]2[C@@H]1C(=O)C[C@@H]2C | -0.265 |
| O=Nc1ccc(N=O)cc1 | -1.67 |
| CC(C)NCC1CCc2cc(CO)c([N+](=O)[O-])cc2N1 (configuration not stated) | -2.967 |
| Cc1cc(N(CCO)CCO)ccc1N=Nc1c(Cl)cc([N+](=O)[O-])cc1[N+](=O)[O-] | -6.301 |
| Nc1ccc(S(=O)(=O)Nc2nncs2)cc1 | -2.868 |
| O=C(O)c1cccnc1Oc1cccc(C(F)(F)F)c1 | -2.839 |
| CCN(CC)CCOc1ccc(C(=C(Cl)c2ccccc2)c2ccccc2)cc1 | -5.991 |
| CC(=O)NC(N)=S | -0.965 |
| CC(=O)Nc1ccc(Br)cc1 | -2.899 |
| Cc1cc(=S)n(C)n1-c1ccccc1 | -1.667 |
| C[C@H](CCC(=O)O)[C@H]1CC[C@H]2[C@@H]3[C@H](O)[C@H](O)[C@@H]4C[C@H](O)CC[C@]4(C)[C@H]3CC[C@]12C | -4.346 |

The last 6 entries again:

compound	water solubility (log10 mol/L)
O=C(O)c1cccnc1Oc1cccc(C(F)(F)F)c1	-2.839
CCN(CC)CCOc1ccc(C(=C(Cl)c2ccccc2)c2ccccc2)cc1	-5.991
CC(=O)NC(N)=S	-0.965
CC(=O)Nc1ccc(Br)cc1	-2.899
Cc1cc(=S)n(C)n1-c1ccccc1	-1.667
C[C@H](CCC(=O)O)[C@H]1CC[C@H]2[C@@H]3[C@H](O)[C@H](O)[C@@H]4C[C@H](O)CC[C@]4(C)[C@H]3CC[C@]12C	-4.346